Mito fusion act – mitochondrial division inhibition or fusion activation; S. cerevisiae fusion-defective mutant growth rescue, CellTiterGlo 48 h; Potency, µM (top dose mostly 46.1 µM), most hits filed as activators; 0.23% of 320,000 active; AID 485298; note: nearly all actives have a fitted effect of over 45% in size
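Compounds are tested for their ability to restore growth of mitochondrial fusion-defective yeast strains at non-permissive 37C in YPEG medium over 48 hours. Viability is quantified by luciferase luminescence.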
Nrf2 inh – inhibitors of Nrf2 signaling | A549 ARE-Fluc reporter, luciferase luminescence, 18-24 h | 2.1% of 360,000 active | AID 504444 | Potency, µM (top dose mostly 46 µM), most hits filed as inhibitors; note: nearly all actives have a fitted effect of over 60% in size
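Two sequential reads on A549 ARE_Fluc cells exposed to compound for 18-24 h: a CellTiter-Fluor fluorescence read for viability, then a luciferase luminescence read for Nrf2/ARE activity.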
miR-21 reporter – raises the signal of a miR-21 reporter | HeLa miR-21 FLuc reporter, luciferase, 48 h | Potency, µM (doses to about 38.3 µM) | 340,000 tested, under 10 active | AID 2288; active = well fitted rising curve with a large enough effect; inconclusive = small, poorly fitted or top-dose-only effect; inactive = no such curve, though single readings can be large or run the other way;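 note: miR-21 action dims this reporter so a rising signal means less miR-21 action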
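HeLa miR-21-FLuc reporter line, endogenous miR-21; 2000 cells/well in DMEM/10% FBS; compound titration up to ~40uM final, 48 h, 37 degree Celsius; luciferase detection reagent, 15 min lysis, CCD luminescence.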
A549 tox-1 – counter-screen for Nrf2 inhibitors: cytotoxicity in A549 cells; A549 ARE-Fluc cells, CellTiter-Fluor viability, 18-24 h; Potency, µM (titrated, usually from 46 µM), usual class: inhibitors; 0.16% of 390,000 active; AID 504648
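A549 ARE_Fluc cells in 5% FBS OPTI-MEM were exposed to compounds in concentration-response for 18-24 h at 37 deg C. Viability was read by CellTiter-Fluor fluorescence (Ex 405/Em 525) after 30 min, before the luciferase read.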
GRP78 ERSR act – inducers of ER stress response in human glioma cells. Potency, µM, usual class: activators. AID 602332. 0.02% of 420,000 active. U87-MG GRP78 promoter luciferase reporter, 16 h; note: series mostly up to about 76 µM; nearly all actives have a fitted effect of over 35% in size
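Stably transfected U87-MG glioma cells carrying a GRP78-based luciferase sensor; 16 h compound incubation. Luminescence end-point read 10 min after Bright-Glo addition at room temperature.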
Nrf2 activator – activators of Nrf2 (ARE) signaling. 0.31% of 410,000 active. Potency, µM (highest dose often 46.1 µM), hits mostly activators. AREc32 ARE-luciferase reporter (MCF7-derived line), luminescence, 24 h; note: nearly all actives have a fitted effect of over 65% in size
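Reporter line AREc32 (ARE-Fluc), seeded overnight in OPTI-MEM with 5% FBS; compound pin-transferred, 24 hr at 37 deg C, 5% CO2; luminescent read-out.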
FLuc counter 3 – counter-screen for Nrf2 inhibitors: firefly luciferase enzyme inhibition | 4% of 1,400 active | purified firefly luciferase, luminescence inhibition | shares compounds with Nrf2 inh | Potency, µM (doses to about 57.5 µM), usual class: inhibitors | AID 720522; note: nearly all actives have a fitted effect of over 65% in size
A549 tox-2 – toxic to A549 ARE-Fluc cells in Nrf2 counterscreen | shares compounds with Nrf2 inh | A549 ARE-Fluc cells, cytotoxicity counterscreen | Potency, µM (top dose mostly 46.1 µM), usual class: inhibitors | 2% of 1,400 active | AID 720523;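 note: cells exposed to compounds for 18 to 24 hours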
ARE-Fluc inh – reduces Nrf2 ARE reporter signal in A549 cells | shares compounds with Nrf2 inh | A549 ARE-firefly luciferase reporter, luminescence | Potency, µM (titrated, usually from 46.1 µM), usual class: inhibitors | 74% of 1,400 active | AID 720524; note: nearly all actives have a fitted effect of over 65% in size
A number is an active result. Hits are enriched below; roughly 2.3% of the tested compounds scored in any of these assays. Unless noted, calls come from the whole dose curve; as a rule, active = well fitted curve in the direction sought with a large enough effect; inconclusive = small, poorly fitted or top-dose-only effect, or another doubt; inactive = no such curve, though single readings can be large; an effect the other way counts as inactive or inconclusive.

What do the screens show for `Clc1ccc(N2CCN(c3ncnc4c3nc3n4CCCC3)CC2)cc1`?
Nrf2 inh: 4.6µM; miR-21 reporter: inactive; A549 tox-1: inactive; GRP78 ERSR act: inactive; Nrf2 activator: inactive; FLuc counter 3: inactive; A549 tox-2: inactive; ARE-Fluc inh: 1.5µM

Results for CNC(=S)Nc1ccc(Br)cc1 ?
Mito fusion act: inactive; Nrf2 inh: inactive; miR-21 reporter: inactive; A549 tox-1: inactive; GRP78 ERSR act: inactive; Nrf2 activator: inactive

Results for CC[C@]12c3[nH]c4ccc(Cl)cc4c3CCN1C(=O)[C@@H](CC(=O)NC/C=C(\C)CCC=C(C)C)C[C@@H]2C(=O)N1CCN(C(=O)c2ccco2)CC1 ?
Nrf2 inh: 6.5µM; A549 tox-1: inconclusive; GRP78 ERSR act: inactive; Nrf2 activator: inactive; FLuc counter 3: inactive; A549 tox-2: inconclusive; ARE-Fluc inh: 16µM

Results for Cc1cccc(C)c1NC(=O)COC(=O)C1C2CC3OC(=O)C1C3C2 (configuration not stated) ?
Mito fusion act: inactive; Nrf2 inh: inactive; miR-21 reporter: inactive; A549 tox-1: inactive; GRP78 ERSR act: inactive; Nrf2 activator: inactive

How did CC(=O)c1sc2c(c1OC(=O)c1ccc(Cl)cc1Cl)c(=O)n(-c1ccccc1)c(=S)n2-c1ccccc1 do in these assays?
Mito fusion act: inconclusive; Nrf2 inh: 3.3µM; miR-21 reporter: inactive; A549 tox-1: inconclusive; GRP78 ERSR act: inactive; Nrf2 activator: inactive; FLuc counter 3: inactive; A549 tox-2: inconclusive

Results for Cc1cc(C)nc(N2CCCC(C(=O)NCCc3ccc(F)cc3)C2)n1 (configuration not stated) ?
Mito fusion act: inactive; Nrf2 inh: inactive; miR-21 reporter: inactive; A549 tox-1: inactive; GRP78 ERSR act: inactive; Nrf2 activator: inactive

How did CC1=CC(=O)C(C(C)C)=CC1=NC(=O)c1ccc(C)cc1 do in these assays?
Mito fusion act: inactive; Nrf2 inh: inactive; miR-21 reporter: inactive; A549 tox-1: inactive; GRP78 ERSR act: inactive; Nrf2 activator: inactive

Results for Cc1ccc(C(=O)OCC(=O)NC(=O)c2cccn2C)cc1 ?
Mito fusion act: inactive; Nrf2 inh: 1.3µM; miR-21 reporter: inactive; A549 tox-1: inactive; GRP78 ERSR act: inactive; Nrf2 activator: inactive; FLuc counter 3: inactive; A549 tox-2: inactive; ARE-Fluc inh: 1.6µM

How did Cc1nc2ccccc2n1-c1nc(-c2ccco2)cc(C(F)(F)F)n1 do in these assays?
Mito fusion act: inactive; Nrf2 inh: 4.6µM; miR-21 reporter: inactive; A549 tox-1: inconclusive; GRP78 ERSR act: inactive; Nrf2 activator: inactive; FLuc counter 3: inactive; A549 tox-2: inconclusive; ARE-Fluc inh: 5.8µM

Results for Cc1noc(C)c1-c1ccc2ncnc(NC3CCCc4ccccc43)c2c1 (configuration not stated) ?
Nrf2 inh: inconclusive; A549 tox-1: inactive

Results for CN(Cc1ccccc1)C(=O)c1nc[nH]c1C(=O)N1CCN(C(=O)OC(C)(C)C)CC1 ?
Mito fusion act: inactive; Nrf2 inh: inactive; A549 tox-1: inactive; GRP78 ERSR act: inactive; Nrf2 activator: inactive

What do the screens show for `CCOc1ccc(CCNc2ncnc3onc(-c4ccc(Cl)cc4)c23)cc1`?
Nrf2 inh: 7.3µM; miR-21 reporter: inactive; A549 tox-1: inactive; GRP78 ERSR act: inactive; Nrf2 activator: inactive; FLuc counter 3: inactive; A549 tox-2: inactive; ARE-Fluc inh: 13µM

How did CCc1nnc(SCC(=O)Nc2ccc(NC(C)=O)cc2)n1-n1cccc1 do in these assays?
Mito fusion act: inactive; Nrf2 inh: inactive; A549 tox-1: inactive; GRP78 ERSR act: inactive; Nrf2 activator: inactive

Assay outcomes (PubChem BioAssay)
